Laboratory results from PubChem BioAssay AID602141 (Sanford-Burnham Center for Chemical Genomics, 2011).
The entries are a selection whose mix differs from that of the whole data set. Activity calls are given as the source filed them.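 Rule for the calls: active = corrected activity change at or below -50% at 5 µM; inactive = the rest.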

Assay: cytotoxicity in KKLEB CF airway cells, primary screen, cytotoxicity control for CF NF-kB inhibitor project, cell-based, uHTS, fluorescence assay plates (AID 602141)
Conditions: KKLEB CF airway cells viability, ATPlite luminescence, overnight; at 5 µM; active compounds read low; cells stimulated with P. aeruginosa culture filtrate

Row | SMILES | activity change (cytotoxicity)
1 | CC(C)c1ccc(C(=O)NCC2(N3CCOCC3)CCCCC2)cc1 | inactive: -0.7%
2 | CC(C)(C)n1nnnc1C(c1ccccc1OC(F)(F)F)N1CCC(n2c(=O)[nH]c3ccccc32)CC1 (centres undefined) | inactive: 2.1%
3 | O=C(NCC1(N2CCCCC2)CCCCC1)c1ccc(OC(F)F)cc1 | inactive: -36.3%
4 | CCN1CCC(Nc2ccc(Cl)cc2)CC1 | inactive: -0.5%
5 | N#CC1(Nc2ccccc2)CCN(CCc2ccccc2)CC1 | inactive: -0.4%
6 | O=c1[nH]c2ccccc2n1C1CCN(C(c2ccccc2OC(F)(F)F)c2nnnn2C2CCCC2)CC1 (centres undefined) | inactive: 6.6%
7 | CSc1ccc(C(=O)NCC2(N3CCOCC3)CCCCC2)cc1 | inactive: 7.1%
8 | O=C(NCC1(N2CCCCC2)CCCCC1)c1cccc([N+](=O)[O-])c1 | inactive: 33.3%
9 | CN(C)C1(CNC(=O)c2cccc(C#N)c2)CCCCC1 | inactive: 8.9%
10 | c1ccc(CN2CCC(Nc3ccccc3)CC2)cc1 | inactive: 6.1%
11 | O=c1[nH]c2ccccc2n1C1CCN(C(c2ccccc2)c2nnnn2C2CCCC2)CC1 (centres undefined) | inactive: 5.3%
12 | CCCN1CCC(Nc2cc(OC)cc(OC)c2)CC1 | inactive: 6.8%
13 | Cc1cc(N(CCCl)CCCl)ccc1C=O | inactive: 10.4%
14 | CC(C)(C)n1nnnc1C(c1cccc2ccccc12)N1CCC(n2c(=O)[nH]c3ccccc32)CC1 (centres undefined) | inactive: -5.3%
15 | N#Cc1ccc(C(=O)NCC2(N3CCCCC3)CCCCC2)cc1 | inactive: 5.4%
16 | CC(C)(C)OC(=O)N1CCC(N(C(=O)c2ccccc2)c2ccc(Cl)cc2)CC1 | inactive: -0.2%
17 | COc1cccc(C(c2nnnn2C(C)(C)C)N2CCC(n3c(=O)[nH]c4ccccc43)CC2)c1OC (centres undefined) | inactive: 5.3%
18 | CCOC(=O)N1CCC(Nc2ccc(C)cc2)CC1 | inactive: 0.1%
19 | N/C(=N\O)c1c(N)no[n+]1[O-] | inactive: -1.4%
20 | O=C(OC1CN2CCC1CC2)C1c2ccccc2C=Cc2ccccc21 (centres undefined) | inactive: -0.5%
21 | O=c1[nH]c2ccccc2n1C1CCN(C(c2cccs2)c2nnnn2C2CCCC2)CC1 (centres undefined) | inactive: -24.9%
22 | CCCCn1nnnc1C(c1cccc(OC)c1OC)N1CCC(n2c(=O)[nH]c3ccccc32)CC1 (centres undefined) | inactive: 0.6%
23 | CCCCn1nnnc1C(c1ccccc1)N1CCC(n2c(=O)[nH]c3ccccc32)CC1 (centres undefined) | inactive: -3.9%
24 | COc1cc(C(=O)NCC2(N3CCOCC3)CCCCC2)cc(OC)c1C | inactive: -4.3%
25 | O=C(NCC1(N2CCOCC2)CCCCC1)c1cc(Br)ccc1Cl | inactive: 9.3%
26 | O=c1[nH]c2ccccc2n1C1CCN(C(c2cccs2)c2nnnn2C2CCCCC2)CC1 (centres undefined) | inactive: -24.2%
27 | COc1ccc(C(=O)NCC2(N3CCOCC3)CCCCC2)cc1OC | inactive: 6.8%

Row | SMILES | activity change (cytotoxicity)
28 | O=c1[nH]c2ccccc2n1C1CCN(C(c2ccnc3ccccc23)c2nnnn2C2CCCC2)CC1 (centres undefined) | inactive: 19.2%
29 | COc1cccc(C(c2nnnn2C2CCCC2)N2CCC(n3c(=O)[nH]c4ccccc43)CC2)c1OC (centres undefined) | inactive: -4.8%
30 | COc1cc(OC)cc(C(=O)NCC2(N3CCOCC3)CCCCC2)c1 | inactive: 6.6%
31 | COc1cccc(C(=O)N(c2cc(C)cc(C)c2)C2CCN(C(=O)OC(C)(C)C)CC2)c1 | inactive: 5%
32 | CCC(CO)(C(=O)OC1CN2CCC1CC2)c1ccccc1 (centres undefined) | inactive: -0.2%
33 | CN1CCC(Nc2ccc(Cl)cc2)CC1 | inactive: 12.1%
34 | CCOc1ncccc1C(=O)NCC1(N2CCOCC2)CCCCC1 | inactive: -2.8%
35 | CN1CCC(Nc2ccc(F)c(Cl)c2)CC1 | inactive: 7.3%
36 | CC(C)(C)OC(=O)N1CCC(Nc2ccccc2)CC1 | inactive: 4.4%
37 | O=C(O)C1(Nc2ccccc2)CCN(Cc2ccccc2)CC1 | inactive: 4%
38 | CCCOc1ccc(C(=O)NCC2(N(C)C)CCCCC2)cc1 | inactive: 9.9%
39 | O=c1[nH]c2ccccc2n1C1CCN(C(c2cc3ccccc3o2)c2nnnn2C2CCCC2)CC1 (centres undefined) | inactive: -5.9%
40 | Cc1ccccc1NC1(C#N)CCN(Cc2ccccc2)CC1 | inactive: -7.3%
41 | CC(C)(C)n1nnnc1C(c1ccnc2ccccc12)N1CCC(n2c(=O)[nH]c3ccccc32)CC1 (centres undefined) | inactive: -0.4%
42 | COc1ccc(C(c2nnnn2C2CCCCC2)N2CCC(n3c(=O)[nH]c4ccccc43)CC2)cc1 (centres undefined) | inactive: -8.9%
43 | CCN1CCC(Nc2cccc(F)c2)CC1 | inactive: 6.4%
44 | O=C(NCC1(N2CCCCC2)CCCCC1)c1ccco1 | inactive: 2.3%
45 | Cn1c(=O)[nH]cc(N(CCCl)CCCl)c1=O | inactive: 14.4%
46 | CN(C)c1ccc(C(=O)NCC2(N3CCCCC3)CCCCC2)cc1 | inactive: -0.7%
47 | CC(=O)N(c1ccccc1)C1CCNCC1 | inactive: 19.3%
48 | COc1cccc(C(c2nnnn2C2CCCCC2)N2CCC(n3c(=O)[nH]c4ccccc43)CC2)c1OC (centres undefined) | inactive: 8.6%
49 | CCC(c1nnnn1C1CCCCC1)N1CCC(n2c(=O)[nH]c3ccccc32)CC1 (centres undefined) | inactive: -0.1%
50 | O=c1[nH]c2ccccc2n1C1CCN(C(c2ccnc3ccccc23)c2nnnn2C2CCCCC2)CC1 (centres undefined) | inactive: -8.7%
51 | COc1cc(OC)cc(C(=O)NCC2(N3CCCCC3)CCCCC2)c1 | inactive: -6.1%
52 | Cc1ccc(C(=O)NCC2(N3CCCCC3)CCCCC2)o1 | inactive: -11.6%
53 | Fc1ccccc1NC1CCN(Cc2ccccc2)CC1 | inactive: 3.6%
54 | Cc1ccc(NC2(C#N)CCN(Cc3ccccc3)CC2)cc1 | inactive: -0.9%
